## Binding of CDR-mutated scFvs to a peptide of the spike HR2 region

Target: peptide PDVDLGDISGINAS, taken from heptad repeat 2 (HR2) of SARS-CoV-2 spike.

Parent scFv Ab-14: VH joined to VL by three GGGGS repeats. Changes lie in the light chain CDRs alone.
VH: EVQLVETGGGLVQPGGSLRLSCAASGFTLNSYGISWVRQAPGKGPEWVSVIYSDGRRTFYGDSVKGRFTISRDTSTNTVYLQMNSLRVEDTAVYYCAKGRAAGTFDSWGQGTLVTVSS
VL: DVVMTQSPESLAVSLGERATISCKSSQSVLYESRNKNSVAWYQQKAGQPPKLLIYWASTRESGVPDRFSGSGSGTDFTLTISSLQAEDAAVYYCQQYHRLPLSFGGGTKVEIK

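These sequences belong to a second round, designed from the earlier measurements on random variants of the parent. Group labels follow the data file (Ctrl: baseline library sampled from a position-specific scoring matrix, with some repeated check sequences; Rand: our label for a block that the file lists under HC and that is probably the random mutants of the ten best first-round binders; En: ensemble of fine-tuned language models; GP: Gaussian process model; HC: hill climbing; Gen: genetic algorithm; Gibbs: Gibbs sampling; a sequence that several methods proposed may carry one label only). The scFvs were displayed on barcoded MATa yeast, the peptide on MATalpha yeast. After mating in shaken culture at 30 °C for 16 h, diploids were selected and their barcode pairs sequenced. A regression on co-assayed BCL2-family reference pairs converts the normalised counts of each replicate to an apparent Kd. Mating was done six times.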

Variants are written as CDR1, CDR2 and CDR3 of the light chain (limits as in the source). Parent: KSSQSVLYESRNKNSVA, WASTRES, QQYHRLPLS.
Scale: log10 of Kd in nM, estimated from mating counts; low values are strong binders.
Averages over replicates are reported, and they cover detected replicates only.
Where no diploid with the target was found in any replicate, the entry reads "nd": below detection, most likely a poor binder, though not proof of it.
Values of this round are not directly comparable with the first-round values of the same sequences.
As a blank, each scFv also met three strains without target: over all light chain designs, 4% of these pairings were detected, typically at 2.64 and seldom below 1.59. Also given: how often the same scFv was detected with the empty control strains.
Of ten entries with the parent sequence, four were seen in most replicates (averages 0.34 to 2.37), three in one and three in none, so single entries are noisy.
The authors' rule: three or more of the six replicates give a measured affinity, fewer mean a poor binder.

| # | log10 Kd (nM), mean | detected | signal with controls | CDR-L1 | CDR-L2 | CDR-L3 | group |
|---|---|---|---|---|---|---|---|
| 1 | 1.74 | 6/6 | 0/18 | MISDLMLYGSRNKNPIA | NASTREY | QQYHRLPLE | En_HC |
| 2 | 0.06 | 6/6 | 0/18 | KQSPQDDYQSRNKNQVA | DASTRES | QQYHRLPLS | GP_Gibbs |
| 3 | 1.68 | 1/6 | 1/18 | KIMQSLNYESFMKNSVA | GQETRER | QSYHRLPLS | En_HC |
| 4 | 0.53 | 6/6 | 3/18 | IADQSWLYESRNKNSVA | GASTRES | QQYHRLPLI | GP_HC |
| 5 | -0.79 | 6/6 | 0/18 | KSSQSPLYESRNKNSVA | SASTRES | QQYHRLPLS | Ctrl |
| 6 | 3.04 | 5/6 | 0/18 | KVSEFMRGLMGKKDSIA | DNVTRSN | QQYDRLPLS | En_Gen |
| 7 | 0.37 | 6/6 | 0/18 | KLSQSVLFWGHAINSVA | EMETREN | QQYDRLPLS | En_HC |
| 8 | 1.30 | 6/6 | 0/18 | HMSMLTLMGMRQRNSVA | QMTMREN | QQYDRLPLV | En_Gen |
| 9 | 0.03 | 6/6 | 0/18 | MMSYGWLAGSRNKRNVA | DRETRES | QQYDRLPLS | En_HC |
| 10 | 0.98 | 6/6 | 2/18 | KMSQPVLYESRNKNSVA | WASQRES | QQYHRLPLS | Ctrl |
| 11 | -0.18 | 6/6 | 0/18 | KLSGSVLYESRNKNSVA | EASTREV | QQYHRLPLS | GP_Gen |
| 12 | -0.68 | 6/6 | 0/18 | KLSQSVLYESRNKNSVA | EASTREQ | QQYHRLPLS | GP_Gen |
| 13 | 0.39 | 6/6 | 0/18 | QIYQAMHTLMQAKNNIA | DVTNRNQ | QQYHRLPLS | En_Gen |
| 14 | nd | 0/6 | 0/18 | KSSQQVLYNSRNKNSVA | WASTRES | QQYHRLLLP | Ctrl |
| 15 | -0.36 | 5/6 | 0/18 | KLSQSWLYESRMKNSVA | NASQRMS | QQYHRLPLS | GP_Gen |
| 16 | nd | 0/6 | 1/18 | MISESVMYESRNRNNVA | DNSTRED | QCYDRLPLS | En_HC |
| 17 | -0.55 | 6/6 | 1/18 | KLSQSALYESRNKNSVA | DASTRES | QQYHRLPLS | GP_Gen |
| 18 | 0.42 | 6/6 | 1/18 | ALSQSVGGESRNPNSVA | HASTREQ | QQYHRLPLS | GP_Gibbs |
| 19 | 0.61 | 6/6 | 0/18 | KLYERGEISSKVDRNIA | EMSTRCE | QSYQRLPLS | En_Gibbs |
| 20 | -0.09 | 6/6 | 0/18 | QLMQSVLYESRNKNSVA | HASLRED | QQYHRLPLS | GP_HC |
| 21 | 0.18 | 6/6 | 2/18 | KLSQSVLYESRNKQSVA | AASTRES | QQYHRLPLS | Ctrl |
| 22 | nd | 0/6 | 0/18 | KSSQSVPRESRNKNSVA | WASTRES | QQYHRLPLS | Ctrl |
| 23 | 4.88 | 1/6 | 2/18 | QMSQPVLYESRLKNSVA | WASTRER | QQTHRLPLS | Ctrl |
| 24 | 1.51 | 6/6 | 0/18 | HMSMLTLQGMYHRNSVA | QMTTREN | QQYDHLPLS | En_Gen |
| 25 | 1.97 | 6/6 | 1/18 | KSSQSVLNESRNKNSVA | WASTRES | QQYHRLPLQ | Ctrl |
| 26 | 0.07 | 6/6 | 0/18 | NIYQAMHTLSQMKDNVA | DVNERFN | QQYFRLPLS | En_Gen |
| 27 | 0.77 | 6/6 | 2/18 | TISQSTQMESHNKNSVA | DLNLRGS | QQYDRLPLS | En_HC |
| 28 | 1.64 | 6/6 | 2/18 | KYSASVLYESRNKNSVA | WASTRES | QQYHRLPLS | Ctrl |
| 29 | nd | 0/6 | 0/18 | KFSAMLYHDNSEASSVA | EGLEVRE | QQYNRLPLG | En_Gibbs |
| 30 | 0.80 | 6/6 | 4/18 | KLGGATRFESSNKASIA | DNSTRES | QQYHRLPLS | En_HC |
| 31 | 1.08 | 6/6 | 1/18 | SLMHLSFVHDREWNNVA | DLNVKAS | QQYDRLPLV | En_Gibbs |
| 32 | 0.49 | 5/6 | 0/18 | KLTSVTGTEKVRGNNVA | EMETREE | QQYNRLPLS | En_Gen |
| 33 | 0.97 | 6/6 | 1/18 | HIQDARGGLSEQFNSVA | STEERSH | QQYHRLPLS | En_Gibbs |
| 34 | -0.07 | 6/6 | 0/18 | KLQQSELYESRNKNSVA | EASTRSS | QQYHRLPLS | GP_Gen |
| 35 | 0.09 | 6/6 | 2/18 | KLVQSNLYESRNTNSVA | NASQRCS | QQYHRLPLS | GP_Gibbs |
| 36 | 0.42 | 6/6 | 1/18 | KSSQSVLYESQNKNSVA | SASTRES | QQYHRLPLS | Ctrl |
| 37 | 1.30 | 6/6 | 0/18 | KLSQSVMFMSGVYNSVA | QMSTRAE | QCYNRLPLS | En_HC |
| 38 | 1.04 | 6/6 | 0/18 | KLSQVTHLEHKNKNSIA | EMVTREK | QQYDRLPLS | En_HC |
| 39 | -0.21 | 6/6 | 0/18 | KVSQSVPYESRNKNSVA | NASTRMS | QQYHRLPLS | GP_Gen |
| 40 | 0.60 | 6/6 | 2/18 | MFDWGELPNGQKTSSIA | QGHMRAG | QQYYMLPLC | En_Gibbs |
| 41 | 1.81 | 5/6 | 0/18 | KSSQSVLYERRNKNSVA | WASTRES | QQYHRLPLS | Ctrl |
| 42 | 0.25 | 6/6 | 2/18 | KSQQSQLYESRNFNSVA | QASTRED | QQYHRLPLS | GP_HC |
| 43 | 0.08 | 6/6 | 0/18 | KISQSVLYESRNKNSVA | EASQRES | QQYHRLPLS | GP_Gen |
| 44 | 0.52 | 3/6 | 1/18 | MISQVLNTLTKQGNNVA | DLNNRED | QQYFRLPLS | En_Gen |
| 45 | -0.02 | 6/6 | 1/18 | KLMQSFLYESRNKNSVA | NASTRES | QQYHRLPLS | GP_Gen |
| 46 | -0.29 | 6/6 | 1/18 | KFSQSELYESRNKNSVA | NASTRMS | QQYHRLPLS | GP_Gen |
| 47 | 1.33 | 6/6 | 0/18 | KSSQGVLYESRNKNSVA | KASTRES | QQYLRLPLS | Ctrl |
| 48 | 2.15 | 4/6 | 0/18 | CQSQRNLDEERNKNSVA | SASTRPS | QQYHRLPLG | Ctrl |
| 49 | -0.30 | 6/6 | 4/18 | TLTDSVLMESHNKNSVA | DLSTRGS | QQYHRLPLS | En_HC |
| 50 | -0.02 | 6/6 | 0/18 | KLSQSVMMESRNKNSVA | HASTRES | QQYHRLPLS | GP_Gen |
| 51 | 0.03 | 6/6 | 0/18 | KVEQSVLYESRNKNSVA | NASTRMS | QQYHRLPLS | GP_Gen |
| 52 | -0.17 | 6/6 | 2/18 | KLSESELYESRNKNSVA | EASTRES | QQYHRLPLS | GP_Gen |
| 53 | 2.73 | 2/6 | 2/18 | VIDAFNFSNGEKWNNIA | QDSTRLQ | QSYQRLPLA | En_Gibbs |
| 54 | 0.68 | 6/6 | 0/18 | HSSQSVLYESNSKNSVA | HASTRES | QQYHRLPLC | Ctrl |
| 55 | 0.09 | 6/6 | 2/18 | KSDQSELEEQRNDNSVA | SASTRMS | QQYHRLPLS | GP_Gibbs |
| 56 | -0.24 | 6/6 | 0/18 | KMSQSYLYESRNKNSVA | NASQRES | QQYHRLPLS | GP_Gen |
| 57 | nd | 0/6 | 0/18 | KSSQSVLYESRNKNSVA | WASQPES | QQYHRLPLS | Ctrl |
| 58 | -0.26 | 6/6 | 0/18 | KVSISYLLESRNKNSVA | EAKTRES | QQYHRLPLS | GP_HC |
| 59 | 2.18 | 5/6 | 2/18 | KTMQSVLYEARNKNSVA | WASTRES | QQYHRLPLS | Ctrl |
| 60 | 0.04 | 6/6 | 2/18 | TITQSAQQESHNKNSVA | DLSVRGS | QQYHRLPLS | En_HC |
| 61 | nd | 0/6 | 0/18 | IVSQLMLWGYHAKNSIA | EAQTRIN | QQYERLPLF | En_Gen |
| 62 | 0.73 | 6/6 | 1/18 | TLMQPQKELGYAKDNIA | DGSIRLG | QQYHRLPLV | En_Gibbs |
| 63 | nd | 0/6 | 1/18 | KSSQSVLYESRNKNSVA | NASTRES | QQGHRLPWS | Ctrl |
| 64 | 0.17 | 6/6 | 0/18 | KSSQSVLYESRNKNSVA | QASLRES | QQYSRLPLS | Ctrl |
| 65 | -0.64 | 6/6 | 1/18 | KLPQSMQYESRNKNNVA | SASTRES | QQYHRLPLS | GP_Gibbs |
| 66 | 0.82 | 6/6 | 1/18 | KMAMALSEEFGTYHGVA | DADHRMH | QQYNRLPLS | En_Gibbs |
| 67 | -0.19 | 6/6 | 0/18 | KQPVLGLYGSRNKNSVA | EASTRES | QQYHRLPLS | GP_Gibbs |
| 68 | 0.31 | 6/6 | 1/18 | TISTSMRYESSLKNAIA | NAQTRES | QQYHRLPLA | En_HC |
| 69 | 1.29 | 1/6 | 0/18 | KSSISYLYESRNKNSVA | EPSTFES | QQYHVLPLC | Rand |
| 70 | 0.64 | 6/6 | 2/18 | KFFQSWLYEQRQVNSVA | NASQRLD | QQYHRLPLS | GP_Gibbs |
| 71 | 1.06 | 6/6 | 0/18 | KCSQNMGETQRNKNSVA | EVSTVPS | QQYFRLPLS | En_HC |
| 72 | -0.11 | 6/6 | 0/18 | ILDQSQLYESRNKNSVA | NASTREM | QQYHRLPLS | GP_Gibbs |
| 73 | 0.88 | 6/6 | 1/18 | KSSQSVLYESRNKNSVA | DASTREA | QQYHRLPFS | Ctrl |

Source: Li et al. 2023 (doi:10.1038/s41467-023-39022-2), MIT Lincoln Laboratory and A-Alpha Bio; data file from the FLAb repository.